{"sequences": {"note": "By UniProt entry, the sequences of proteins in these tests, tags left out.", "UniProt P50591, whole entry": "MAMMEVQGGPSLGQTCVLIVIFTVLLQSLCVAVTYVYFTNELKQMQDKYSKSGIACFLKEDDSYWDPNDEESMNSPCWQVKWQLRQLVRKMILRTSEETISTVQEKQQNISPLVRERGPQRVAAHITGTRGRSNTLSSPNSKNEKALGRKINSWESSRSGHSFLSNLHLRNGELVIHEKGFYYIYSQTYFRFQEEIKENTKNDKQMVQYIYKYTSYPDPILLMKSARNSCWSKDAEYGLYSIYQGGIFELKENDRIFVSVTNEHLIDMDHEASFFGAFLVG"}, "source": "paper PMC5352116", "target": "Death Receptor 5 (DR5) (human (endogenous in MCF-10A-Tr)) (UniProt O14763)", "data": [{"substance": "Tumor Necrosis factor Related Apoptosis Inducing Ligand (TRAIL) (from UniProt P50591 1-281)", "values": [{"measurement": "apoptotic cells by annexin V-FITC/PI dual staining (FACS), MCF-10A-Tr cells treated with TRAIL (10 ng/mL) + QC (2.5 uM)", "result": 42, "unit": "%"}]}]}
